What was measured:
[1] = clinical IFN regimens; cited from earlier work
[2] = tested on: Dengue virus serotype 2 (DENV2), strain New Guinea C; assay: Antiviral evaluation; type: cell-based; conditions: HFF-1 cells, 100 IU/mL

interferon-alpha [IFN]
average drug concentration at steady state [1]: approximately 200 IU/mL | decrease in viral burden relative to the no treatment control [2]: 1.6 log10 PFU/mL

Reference: PMC8145572 (Viruses, 2021)
